{"source": "paper PMC10535824", "about": "“Tryptophan Substitution in CJ-15,208 (cyclo[Phe-D-Pro-Phe-Trp]) Introduces δ-Opioid Receptor Antagonism, Preventing Antinociceptive Tolerance and Stress-Induced Reinstatement of Extinguished Cocaine-Conditioned Place Preference” (Pharmaceuticals, 2023)", "tested_on": "C57BL/6J mice", "assay": "conditioned place preference / aversion", "conditions": "two-day place conditioning, i.c.v.; morphine 30 nmol, U50,488 100 nmol, [Nal(2′)^4]CJ-15,208 30 or 100 nmol", "data": [{"substance": "(±)-trans-3,4-dichloro-N-methyl-N-[2-(1-pyrrolidinyl)cyclohexyl]benzeneacetamide", "values": [{"measurement": "conditioned place preference or aversion", "result": "significant (p = 0.03) conditioned place avoidance"}]}]}
